# AlphaSeq binding of Ab-95 light chain variants to a spike HR2 peptide

All variants were tested on one target, the spike HR2 peptide PDVDLGDISGINAS (SARS-CoV-2).

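AAYL52 was designed without a model: most single CDR substitutions and a random sample of double and triple ones. AlphaSeq pools MATa yeast showing the antibodies with MATalpha yeast showing the peptide. After mating in shaken culture at 30 °C for 16 h, diploids were selected and their barcode pairs sequenced. Scores were corrected for input abundance and mapped to Kd with protein pairs of known affinity run in the same pool. The assay was run in three technical replicates.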

Each scFv is VH, three GGGGS repeats, VL, as in the parent Ab-95, and differs from it in the CDRs of the light chain only.
VH: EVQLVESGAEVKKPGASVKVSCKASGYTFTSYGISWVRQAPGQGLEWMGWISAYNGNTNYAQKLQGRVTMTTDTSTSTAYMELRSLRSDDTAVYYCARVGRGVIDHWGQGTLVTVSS
VL: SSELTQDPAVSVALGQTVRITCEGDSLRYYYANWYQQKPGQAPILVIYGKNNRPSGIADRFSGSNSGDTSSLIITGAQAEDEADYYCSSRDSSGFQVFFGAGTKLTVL

The parent's light chain CDRs are EGDSLRYYYAN, GKNNRPS, SSRDSSGFQVF; each variant's own CDRs replace them letter for letter.
Affinities are written as log10 Kd with Kd in nM; a lower number is a better binder.
Averages over replicates are reported, and they cover detected replicates only.
Where no diploid with the target was found in that replicate, the entry reads "ND": below detection, most likely a poor binder, though not proof of it.
Empty control strains, which show no peptide, gave a signal in 28% of pairings with library AAYL52; the median was 3.91 and 95% of these signals were weaker than 2.90. No background was subtracted. For each scFv, signals with the empty controls are counted beside the result, with their mean in brackets.
Parent in this assay: reference entry 2.31, copy in this library 2.25.

CDR-L1,CDR-L2,CDR-L3,log10 Kd (nM) by replicate,mean log10 Kd (nM),empty controls
EGDSLRYRYAD,GKNNRPS,SSHDSSGFQVF,2.47 2.86 3.00,2.78,6/9 (4.12)
EGDSERYYYAN,GKNNEPS,SSRDSSGFQVF,ND ND ND,ND,1/9 (4.21)
EGDSLRYIYAN,GKNMRPS,SSQDSSGFQVF,ND ND ND,ND,1/9 (5.10)
EGDSLRYYYCN,GKNNRPS,SARDYSGFQVF,2.83 3.36 3.06,3.08,3/9 (3.79)
EPDSVRYYYAM,GKNNRPS,SSRDSSGFQVF,1.99 1.53 1.27,1.59,5/9 (3.79)
EGDSLRYYFGN,GKNNRPS,KSRDSSGFQVF,5.26 ND ND,5.26,3/9 (3.70)
EGGSLRYYYAN,GKNNRGS,SKRDSSGFQVF,3.79 ND ND,3.79,3/9 (3.73)
EGDSNRYYIAN,GKNNRPS,SFRDSSGFQVF,3.45 3.81 ND,3.63,5/9 (4.42)
EGDSLRYYYAN,GKNNRPS,SWRESSGFQVW,2.28 2.12 1.65,2.02,5/9 (4.15)
EGDSLRYYSAN,GKNNRPS,SSRFSSGFQAF,1.64 1.54 1.49,1.56,1/9 (2.96)
NGDSLRYRYAN,GKNNRPS,SSRDSSGFQFF,3.92 2.48 3.06,3.15,2/9 (3.41)
EGDSLRAYYCN,GKYNRPS,SSRDSSGFQVF,4.42 3.76 3.27,3.82,7/9 (4.13)
EGDSCRYYYAN,FKNHRPS,SSRDSSGFQVF,3.99 ND ND,3.99,3/9 (4.57)
EGDSLRKYYAN,GKNNRPS,SVRDSSVFQVF,3.26 3.97 3.41,3.55,3/9 (3.27)
EGDILRRYYAN,GKNNRPS,CSRDSSGFQVF,2.62 2.36 2.49,2.49,2/9 (3.71)
EDDSLRYYYAN,GKNNRPH,SSRDSSGTQVF,2.86 ND 2.68,2.77,2/9 (3.50)
EGDSLRYYYAN,GKNNRPS,SSRDSDGFQKF,2.50 2.27 1.89,2.22,3/9 (4.57)
EKDGLQYYYAN,GKNNRPS,SSRDSSGFQVF,ND 3.72 2.03,2.87,1/9 (3.84)
EGDSLRYYLAN,GKTNRPI,SSRDSSGFQVF,3.82 2.56 ND,3.19,2/9 (3.06)
EGDSLRYMYDN,GKNNRPS,SSRDSSGFQVF,2.42 2.04 1.93,2.13,2/9 (3.43)
ECDSLRYYYAN,GKNLRPS,LSRDSSGFQVF,3.58 ND 3.07,3.32,5/9 (3.90)
EGDSLRYYAAN,GKNNRRS,SSRDSSGMQVF,2.56 2.65 1.98,2.40,3/9 (4.52)
EGDSLRYYYAN,GCNNRPS,FSRDSSGFQVF,3.05 5.72 4.25,4.34,4/9 (4.04)
EGDSLRYYTAN,GKFNRPS,SSRDSPGFQVF,5.34 ND 3.79,4.56,3/9 (4.17)
EGDSLRYYKAN,GKNNDPA,SSRDSSGFQVF,3.21 3.04 2.96,3.07,4/9 (4.16)
EGDSKRYYYAN,IKNNRIS,SSRDSSGFQVF,4.44 3.58 ND,4.01,1/9 (3.51)
EGDSLRYYYTN,GKNNRPT,SSRISSGFQVF,3.05 2.50 3.97,3.17,6/9 (4.00)
EMDSLRYYYAN,VKYNRPS,SSRDSSGFQVF,4.53 3.70 ND,4.11,8/9 (3.66)
EGDSLRNYYAN,GKNNRPS,SSRDSFGFEVF,1.70 2.52 1.33,1.85,3/9 (3.71)
EGDSLRYYYAN,GKNNRPS,SSRKSSGFSVP,ND ND ND,ND,2/9 (4.17)
EGDSLRYYYAE,GKVNRPS,SSRDSSGFQVA,5.03 4.24 ND,4.63,2/9 (3.42)
EGDSLRYYHAN,GKNNRPS,SSRDSYAFQVF,2.77 2.36 2.11,2.41,1/9 (5.33)
EGDSLWIYYAN,GKNNRPS,SSRASSGFQVF,2.97 ND 3.81,3.39,3/9 (3.87)
ESDSYRYYYAN,GKNNRPS,SSRDSSGFVVF,2.87 2.56 2.67,2.70,4/9 (4.30)
EGDSLRYYYAN,GKNNIPS,SSDDSSGFQTF,ND 3.67 ND,3.67,2/9 (3.50)
EGDSLSYYYAN,GKNNRPS,SDRMSSGFQVF,3.53 3.27 ND,3.40,1/9 (3.60)
EGDMLRYEYAN,GKSNRPS,SSRDSSGFQVF,2.33 2.46 2.23,2.34,4/9 (4.36)
EGDSLRYYCAN,GKCNMPS,SSRDSSGFQVF,ND ND ND,ND,3/9 (4.66)
EGDSLRYYYAN,GKNNRPS,SSVDSSGFHGF,2.70 ND ND,2.70,0/9
IGDSLRYYYAN,GKNNRDS,SSRDSSGFEVF,4.17 2.98 ND,3.57,3/9 (3.91)
EGDSLRYYYAH,GFNTRPS,SSRDSSGFQVF,ND 3.55 ND,3.55,3/9 (4.12)
EGDSLRYYDAN,GLDNRPS,SSRDSSGFQVF,1.05 1.03 0.69,0.92,1/9 (4.81)
AGESLRYYYAN,GKNNRPA,SSRDSSGFQVF,1.55 1.28 0.92,1.25,2/9 (4.23)
EGDSLRMYYAN,GKNNRPS,SSRDRSGFQVF,2.16 2.60 2.49,2.42,3/9 (3.21)
EGDSLRYYYAN,VKNNRPS,SSRDSSGFQVF,4.98 4.49 ND,4.73,2/9 (3.86)
ENDSLRYYYAN,GKNNRPF,SSRDSSAFQVF,3.70 5.49 2.85,4.01,6/9 (3.45)

For reference, 5 entries of the list once more:

CDR-L1,CDR-L2,CDR-L3,log10 Kd (nM) by replicate,mean log10 Kd (nM),empty controls
IGDSLRYYYAN,GKNNRDS,SSRDSSGFEVF,4.17 2.98 ND,3.57,3/9 (3.91)
EGDSLRYYSAN,GKNNRPS,SSRFSSGFQAF,1.64 1.54 1.49,1.56,1/9 (2.96)
EGDSLRYYDAN,GLDNRPS,SSRDSSGFQVF,1.05 1.03 0.69,0.92,1/9 (4.81)
EGDSLRMYYAN,GKNNRPS,SSRDRSGFQVF,2.16 2.60 2.49,2.42,3/9 (3.21)
EPDSVRYYYAM,GKNNRPS,SSRDSSGFQVF,1.99 1.53 1.27,1.59,5/9 (3.79)

Data: MIT Lincoln Laboratory AlphaSeq set, Engelhart et al. 2022, doi:10.1038/s41597-022-01779-4, as distributed in FLAb.